The nature of this assay: Inhibition of recombinant cathepsin X (unknown origin) expressed in Pichia pastoris assessed as residual activity at 100 uM using Abz-Fek(Dnp)-OH as substrate preincubated for 30 mins under shaking in presence of 5 mM cysteine followed by substrate addition relative to control. Particulars: Homo sapiens.

For `O=C(CBr)c1ccc([N+](=O)[O-])cc1`, the Activity was 75%.

These data come from ChEMBL document CHEMBL4680109, “A road map for prioritizing warheads for cysteine targeting covalent inhibitors” (Eur J Med Chem, 2018).
